The source of these data is ChEMBL document CHEMBL3525963, “Tissue distribution and elimination of [14C]apixaban in rats” (Drug Metab Dispos, 2011).

Format in all cases: ADME, organism-based
Holding throughout (design): dose 5 mg/kg, dosed compound name [14C]-apixaban, route oral
Holding throughout (conditions): in vivo

In one data set the test system is Adrenal gland. In words: Biodistribution in pregnant Sprague-Dawley rat adrenal gland at 5 mg/kg, po administered as single dose measured after 0.5 hrs.
The test system of the next data set is Blood. The data set is described as follows: Biodistribution in pregnant Sprague-Dawley rat blood at 5 mg/kg, po administered as single dose measured after 1 hr.
The subject of a further data set is Rattus norvegicus. In words: Biodistribution in pregnant Sprague-Dawley rat amnion at 5 mg/kg, po administered as single dose measured after 0.5 hrs.

For `COc1ccc(-n2nc(C(N)=O)c3c2C(=O)N(c2ccc(N4CCCC[14C]4=O)cc2)CC3)cc1`, the figures for the Radiolabel recovery with Adrenal gland, with Blood and with Rattus norvegicus were 1.49 ugequiv/g, 1.44 ugequiv/g and 1.45 ugequiv/g, respectively.
